# Earlier results in patent US20250352536A1, “NEURORESTORATION COMPOSITIONS IMPLEMENTING MULTIPLE NEUROPLASTICITY INDUCING MECHANISMS OF ACTION” (Neuro-Innovators, Inc., priority 2022, published 2025).
# Molecular target: angiotensin II receptor type 1 (AT1) (Homo sapiens, UniProt P30556)
# Details: selectivity AT1 over AT2
structure (smiles),measurement,value
CCCc1nc2c(C)cc(-c3nc4ccccc4n3C)cc2n1Cc1ccc(-c2ccccc2C(=O)O)cc1 [Telmisartan],binding affinity greater for AT1 than AT2,3000 times
